Our source for the koff values is patent US20250213705A1, “PSMA TARGETING LIGANDS AND METHODS OF USE” (Bright Peak Therapeutics AG, priority 2023, published 2025).

By UniProt entry, the sequences of proteins in these tests, tags left out.
UniProt Q04609, whole entry: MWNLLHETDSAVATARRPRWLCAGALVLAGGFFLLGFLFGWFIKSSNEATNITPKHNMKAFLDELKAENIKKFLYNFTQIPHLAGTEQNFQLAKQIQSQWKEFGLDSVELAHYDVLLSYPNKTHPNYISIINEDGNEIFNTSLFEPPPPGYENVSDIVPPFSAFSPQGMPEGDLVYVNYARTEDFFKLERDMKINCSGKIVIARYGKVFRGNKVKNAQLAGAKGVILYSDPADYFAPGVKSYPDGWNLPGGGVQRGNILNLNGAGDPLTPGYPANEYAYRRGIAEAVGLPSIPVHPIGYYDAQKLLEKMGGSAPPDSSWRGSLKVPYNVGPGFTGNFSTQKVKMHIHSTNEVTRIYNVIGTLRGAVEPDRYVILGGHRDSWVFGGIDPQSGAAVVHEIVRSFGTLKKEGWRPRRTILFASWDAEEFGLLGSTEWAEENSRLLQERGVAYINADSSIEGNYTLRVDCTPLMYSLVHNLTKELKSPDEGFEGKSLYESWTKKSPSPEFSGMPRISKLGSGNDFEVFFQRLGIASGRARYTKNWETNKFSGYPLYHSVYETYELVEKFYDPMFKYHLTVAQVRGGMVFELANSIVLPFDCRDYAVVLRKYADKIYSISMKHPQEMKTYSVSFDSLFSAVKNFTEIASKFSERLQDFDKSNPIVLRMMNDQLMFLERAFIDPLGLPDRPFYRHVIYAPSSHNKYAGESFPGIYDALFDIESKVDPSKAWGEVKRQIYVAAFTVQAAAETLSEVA

The assay addresses human FOLH1 (Homo sapiens (Human), UniProt Q04609). As to the kind of experiment: SPR analysis of binding kinetics to biotinylated FOLH1 (Biacore 8K). The note with it: ligand PSMA, dissociation rate. On the procedure: The interaction of PSMA-binding variants with human FOLH1 was measured with Surface Plasmon Resonance (SPR) technology. Biotinylated FOLH1 was captured at a concentration of 30 μg/mL onto a Streptavidin chip.
Binding kinetics of the analytes were measured with a Biacore 8K instrument in two-fold serial dilutions starting at 500 nM down to 1.95 nM in single cycle kinetic measurements. After each cycle, needles were washed with 50% DMSO. To measure the association to the FOLH1 protein, the samples were injected with a flow rate of 30 μL/min for 90 s, followed by 1200 s buffer only to detect the dissociation. The used running buffer was 1×PBS with 0.05% Tween20 and 2% DMSO. The relative response units (RU, Y-axis) are plotted against time (s, X-axis) and analyzed in a kinetic 1:1 binding model.
In a different setup, biotinylated FOLH1 was captured at a concentration of 0.8 μg/mL and the running buffer was 1×PBS with 0.05% Tween20.
For orientation: In SPR one partner is held on a chip, and binding of the other changes the refractive index at the surface.

Turning to `CC(=O)NCCOCCOCCOCCC(=O)NC[C@H]1CC[C@H](C(=O)N[C@@H](Cc2ccc3ccccc3c2)C(=O)NCCCC[C@H](NC(=O)N[C@@H](CCC(=O)O)C(=O)O)C(=O)O)CC1` [Compound 8], the koff (usually the rate constant with which the complex falls apart) is 0.000104 s⁻¹.

Consider `CC(=O)NCCOCCOCCOCCC(=O)NC[C@H]1CC[C@H](C(=O)N[C@@H](Cc2cccc(C(=O)O)c2)C(=O)NCCCC[C@H](NC(=O)N[C@@H](CCC(=O)O)C(=O)O)C(=O)O)CC1` [Compound 10], for which the koff was 0.000262 s⁻¹.
